Experiments:
Homo sapiens [1] = species on record: Homo sapiens; assay: Selectivity ratio of Ki for human kappa opioid receptor over Ki for human delta opioid receptor
Procedure, shortened: (§1)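 Competition binding used CHO membranes stably expressing human κ, μ or δ receptor with 12 compound concentrations in 50 mM Tris-HCl pH 7.5 at 25°C. The radioligands were κ [3H]U69,593 for 60 min, μ [3H]DAMGO for 60 min and δ [3H]naltrindole for 3 h. […] Samples were GF/B filtered and counted by scintillation. IC50 came from log-probit analysis and was converted to Ki by Cheng-Prusoff, from three experiments in triplicate.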

Homo sapiens [2] = species on record: Homo sapiens; assay: Selectivity ratio of Ki for human kappa opioid receptor over Ki for human mu opioid receptor; procedure, shortened: as §1

Oc1ccc2c(c1)[C@@]13CCCC[C@H]1[C@@H](C2)N(CC1CCC1)CC3 showed a Ratio Ki (Homo sapiens [1]) of 75 and a Ratio Ki (Homo sapiens [2]) of 3.
